Data reported in paper PMC3317675 (International Journal of Molecular Sciences, 2012).

Chains of the proteins cited; added tags and fusions are not shown. Lines headed by an entry give the natural chain unless they say otherwise; changes in a name come on top.
UniProt P31652, whole entry: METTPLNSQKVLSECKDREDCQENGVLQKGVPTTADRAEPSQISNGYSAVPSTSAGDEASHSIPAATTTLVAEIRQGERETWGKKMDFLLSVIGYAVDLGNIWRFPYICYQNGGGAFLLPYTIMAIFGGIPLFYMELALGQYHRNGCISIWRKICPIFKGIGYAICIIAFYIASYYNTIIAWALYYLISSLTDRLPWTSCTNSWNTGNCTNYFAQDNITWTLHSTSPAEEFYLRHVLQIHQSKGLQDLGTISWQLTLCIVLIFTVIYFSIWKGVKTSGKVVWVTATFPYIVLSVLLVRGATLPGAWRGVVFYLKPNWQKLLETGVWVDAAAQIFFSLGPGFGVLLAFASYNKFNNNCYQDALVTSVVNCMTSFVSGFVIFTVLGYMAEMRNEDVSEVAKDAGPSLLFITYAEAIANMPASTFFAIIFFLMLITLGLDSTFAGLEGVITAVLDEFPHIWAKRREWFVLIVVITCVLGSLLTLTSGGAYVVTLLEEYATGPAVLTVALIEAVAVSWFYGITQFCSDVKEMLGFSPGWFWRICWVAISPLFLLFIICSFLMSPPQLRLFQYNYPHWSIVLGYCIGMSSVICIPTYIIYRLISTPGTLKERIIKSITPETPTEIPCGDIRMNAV

Assays:
rSERT = molecular target: T1, rSERT (Rattus norvegicus, UniProt P31652); experiment: [3H]5-HT uptake inhibition, stable CHO cells; format: cell-based
T1 construct: gene Slc6a4; previously cloned cDNA; no tag mentioned

mGAT3 = molecular target: T2, mGAT3 (Mus musculus, UniProt P31650); experiment: cell-based; design: gene Slc6a11
T2 sequence (P31650 1-627): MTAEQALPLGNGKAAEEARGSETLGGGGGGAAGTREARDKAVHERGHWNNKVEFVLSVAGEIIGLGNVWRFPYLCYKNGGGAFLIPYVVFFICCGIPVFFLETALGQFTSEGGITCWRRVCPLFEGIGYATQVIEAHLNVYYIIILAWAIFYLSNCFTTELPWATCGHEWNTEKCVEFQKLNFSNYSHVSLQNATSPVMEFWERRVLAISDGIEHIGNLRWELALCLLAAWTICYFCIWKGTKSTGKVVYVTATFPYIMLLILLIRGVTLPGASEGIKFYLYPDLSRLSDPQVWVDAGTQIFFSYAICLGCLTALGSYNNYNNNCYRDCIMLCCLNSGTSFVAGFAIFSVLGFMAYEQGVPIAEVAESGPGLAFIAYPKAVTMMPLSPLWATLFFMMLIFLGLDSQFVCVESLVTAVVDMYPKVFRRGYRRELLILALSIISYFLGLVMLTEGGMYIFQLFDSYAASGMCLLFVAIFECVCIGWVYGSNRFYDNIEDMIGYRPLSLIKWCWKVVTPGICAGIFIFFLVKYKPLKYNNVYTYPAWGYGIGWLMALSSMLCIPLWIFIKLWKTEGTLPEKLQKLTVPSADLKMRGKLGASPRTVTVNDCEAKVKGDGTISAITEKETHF

mGAT1 = mGAT1 (Mus musculus, UniProt P31648); experiment: cell-based; design: gene Slc6a1

## CNCCC=C1c2ccccc2CCc2ccccc21 [Nortriptyline]
rSERT
  IC50: 0.63 µM

## NCCCC(=O)O [GABA]
mGAT3
  IC50: 4.6 µM

## O=C(O)C1CCCNC1 (stereo not drawn) [Nipecotic acid]
mGAT1
  IC50: 9.7 µM
